Source: PubChem BioAssay AID2073 (Sanford-Burnham Center for Chemical Genomics, 2009)
The list shows a part of the results, in another mix than the full data. Measured potencies and affinities stand elsewhere. Calls of active or inactive are those of the source. No stated cut-off is given here; in the data, active means inhibition mostly above about 51% (no sharp cut-off); inconclusive means no clear call, values can overlap the other calls; inactive means mostly below about 53%.

Amino acid sequences for entries named in this document (tags omitted).
UniProt Q00975, whole entry: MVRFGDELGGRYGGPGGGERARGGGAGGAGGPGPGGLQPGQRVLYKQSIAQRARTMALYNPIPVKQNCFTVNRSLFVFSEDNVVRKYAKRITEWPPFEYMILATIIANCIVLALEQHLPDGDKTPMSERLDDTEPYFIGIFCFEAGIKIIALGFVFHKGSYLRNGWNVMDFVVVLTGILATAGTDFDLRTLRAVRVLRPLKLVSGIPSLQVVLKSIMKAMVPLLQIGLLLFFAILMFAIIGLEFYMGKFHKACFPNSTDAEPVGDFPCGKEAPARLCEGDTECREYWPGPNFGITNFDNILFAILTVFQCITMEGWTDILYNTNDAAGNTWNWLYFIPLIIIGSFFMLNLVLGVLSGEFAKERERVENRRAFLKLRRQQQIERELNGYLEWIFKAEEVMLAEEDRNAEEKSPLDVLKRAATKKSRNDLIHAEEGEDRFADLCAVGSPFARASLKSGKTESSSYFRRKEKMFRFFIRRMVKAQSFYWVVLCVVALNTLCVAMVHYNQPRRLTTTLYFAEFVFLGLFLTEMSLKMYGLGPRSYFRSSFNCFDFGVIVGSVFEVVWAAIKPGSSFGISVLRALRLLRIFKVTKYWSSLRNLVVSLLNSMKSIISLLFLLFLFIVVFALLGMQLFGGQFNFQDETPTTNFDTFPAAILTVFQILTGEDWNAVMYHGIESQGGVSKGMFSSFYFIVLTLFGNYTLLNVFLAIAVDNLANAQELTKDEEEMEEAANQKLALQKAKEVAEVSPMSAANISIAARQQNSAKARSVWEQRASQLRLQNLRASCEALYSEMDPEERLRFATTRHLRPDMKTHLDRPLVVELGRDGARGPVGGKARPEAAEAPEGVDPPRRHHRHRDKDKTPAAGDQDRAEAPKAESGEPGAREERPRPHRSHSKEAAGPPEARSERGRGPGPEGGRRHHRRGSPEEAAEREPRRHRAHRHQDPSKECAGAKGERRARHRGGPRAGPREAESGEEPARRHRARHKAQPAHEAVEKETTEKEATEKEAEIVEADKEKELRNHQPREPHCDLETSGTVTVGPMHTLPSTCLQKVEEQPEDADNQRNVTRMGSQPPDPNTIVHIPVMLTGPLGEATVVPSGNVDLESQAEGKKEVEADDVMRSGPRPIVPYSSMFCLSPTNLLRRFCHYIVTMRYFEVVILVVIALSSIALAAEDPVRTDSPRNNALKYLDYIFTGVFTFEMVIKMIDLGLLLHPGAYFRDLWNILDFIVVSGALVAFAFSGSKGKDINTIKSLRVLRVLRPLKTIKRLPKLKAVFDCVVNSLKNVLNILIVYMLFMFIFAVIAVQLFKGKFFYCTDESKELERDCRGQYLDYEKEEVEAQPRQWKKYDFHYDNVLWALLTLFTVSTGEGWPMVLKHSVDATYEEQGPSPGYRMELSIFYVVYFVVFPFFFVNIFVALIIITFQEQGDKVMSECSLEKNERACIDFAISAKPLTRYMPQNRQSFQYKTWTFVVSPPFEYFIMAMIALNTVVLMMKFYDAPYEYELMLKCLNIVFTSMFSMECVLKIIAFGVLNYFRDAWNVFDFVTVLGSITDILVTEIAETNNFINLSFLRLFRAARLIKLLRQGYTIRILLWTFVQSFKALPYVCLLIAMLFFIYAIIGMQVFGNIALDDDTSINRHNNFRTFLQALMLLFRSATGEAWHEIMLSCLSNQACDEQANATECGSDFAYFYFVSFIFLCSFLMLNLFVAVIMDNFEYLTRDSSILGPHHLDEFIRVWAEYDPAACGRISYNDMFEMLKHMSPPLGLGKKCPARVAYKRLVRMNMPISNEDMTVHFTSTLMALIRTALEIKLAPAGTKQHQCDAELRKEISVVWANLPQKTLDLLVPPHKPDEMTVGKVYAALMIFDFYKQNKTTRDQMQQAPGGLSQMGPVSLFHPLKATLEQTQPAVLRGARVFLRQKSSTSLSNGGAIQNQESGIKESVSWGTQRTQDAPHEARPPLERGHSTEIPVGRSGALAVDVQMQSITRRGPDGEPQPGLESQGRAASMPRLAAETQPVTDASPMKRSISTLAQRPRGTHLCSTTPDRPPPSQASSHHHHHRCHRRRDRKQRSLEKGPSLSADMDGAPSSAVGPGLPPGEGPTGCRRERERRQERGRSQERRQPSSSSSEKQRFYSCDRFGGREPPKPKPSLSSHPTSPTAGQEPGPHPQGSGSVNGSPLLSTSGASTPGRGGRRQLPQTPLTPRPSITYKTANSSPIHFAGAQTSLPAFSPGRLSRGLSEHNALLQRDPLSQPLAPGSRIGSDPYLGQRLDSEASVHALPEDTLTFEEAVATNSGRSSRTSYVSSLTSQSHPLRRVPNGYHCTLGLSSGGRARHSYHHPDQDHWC

The compounds below were run against Voltage-dependent N-type calcium channel subunit alpha-1B (Homo sapiens) (UniProt Q00975) (assay: inhibitors of Mint1-CaV2.2 protein interaction, biochemical, HTRF (AID 2073)). Conditions: at 20 µM, stronger effect = higher value.
`COc1ccc(C(=O)NCC2(N3CCOCC3)CCCCC2)cc1OC` was tested, and the inhibition was inactive: 1.1%. `CCOC(=O)N1CCC(Nc2ccc(C)cc2)CC1` was tested, and the inhibition was inactive: 3.5%. With `N/C(=N\O)c1c(N)no[n+]1[O-]` the inhibition was inactive: -2.7%. For `O=C(OC1CN2CCC1CC2)C1c2ccccc2C=Cc2ccccc21` (centres undefined), the inhibition was inactive: 4.2%. For `N#Cc1ccc(C(=O)NCC2(N3CCCCC3)CCCCC2)cc1`, the inhibition was inactive: -5.3%. In the case of `CC(C)(C)OC(=O)N1CCC(N(C(=O)c2ccccc2)c2ccc(Cl)cc2)CC1`, the inhibition is reported as inactive: 0.8%. In the case of `CN(C)C1(CNC(=O)c2cccc(C#N)c2)CCCCC1`, the inhibition is reported as inactive: 14.2%. With `c1ccc(CN2CCC(Nc3ccccc3)CC2)cc1` the inhibition was inactive: -10.1%. With `CCCN1CCC(Nc2cc(OC)cc(OC)c2)CC1` the inhibition was inactive: -7.3%. In the case of `COc1cc(OC)cc(C(=O)NCC2(N3CCCCC3)CCCCC2)c1`, the inhibition is reported as inactive: 9.7%. With `Fc1ccccc1NC1CCN(Cc2ccccc2)CC1` the inhibition was inactive: -2.4%. `CCN1CCC(Nc2cccc(F)c2)CC1` was tested, and the inhibition was inactive: -2.6%. For `CN(C)c1ccc(C(=O)NCC2(N3CCCCC3)CCCCC2)cc1`, the inhibition was inactive: -0.2%. In the case of `CCOc1ncccc1C(=O)NCC1(N2CCOCC2)CCCCC1`, the inhibition is reported as inactive: 1.7%. With `CN1CCC(Nc2ccc(F)c(Cl)c2)CC1` the inhibition was inactive: -4.3%. `CC(C)(C)OC(=O)N1CCC(Nc2ccccc2)CC1` was tested, and the inhibition was inactive: -5.9%. In the case of `O=C(O)C1(Nc2ccccc2)CCN(Cc2ccccc2)CC1`, the inhibition is reported as inactive: 7.7%. For `CCCOc1ccc(C(=O)NCC2(N(C)C)CCCCC2)cc1`, the inhibition was inactive: 3.5%. `COc1cc(OC)cc(C(=O)NCC2(N3CCOCC3)CCCCC2)c1` was tested, and the inhibition was inactive: 17.2%. For `COc1cccc(C(=O)N(c2cc(C)cc(C)c2)C2CCN(C(=O)OC(C)(C)C)CC2)c1`, the inhibition was inactive: 12%. In the case of `CCC(CO)(C(=O)OC1CN2CCC1CC2)c1ccccc1` (centres undefined), the inhibition is reported as inactive: -7.3%. With `CN1CCC(Nc2ccc(Cl)cc2)CC1` the inhibition was inactive: 2%. `CCCOc1ccc(C)cc1CN(CCCl)CCCl` was tested, and the inhibition was inactive: -4.9%. For `COc1ccc(C(=O)NCC2(N3CCCCC3)CCCCC2)cc1`, the inhibition was inactive: 25.9%. `CC(C)(C)OC(=O)N1CCC(N(C(=O)c2ccccc2)c2ccc(F)cc2)CC1` was tested, and the inhibition was inactive: 2%. In the case of `COc1ccc(C(=O)NCC2(N3CCCCC3)CCCCC2)c(OC)c1OC`, the inhibition is reported as inactive: -2%. For `O=C(NCC1(N2CCCCC2)CCCCC1)c1ccc(=O)[nH]c1`, the inhibition was inactive: -5.3%. `CSc1ccccc1C(=O)NCC1(N2CCCCC2)CCCCC1` was tested, and the inhibition was inactive: 9.6%. `Cc1cc(C)cc(N(C(=O)c2ccccc2)C2CCN(C(=O)OC(C)(C)C)CC2)c1` was tested, and the inhibition was inactive: 12.4%. With `O=C(NCC1(N2CCOCC2)CCCCC1)c1cc2ccccc2o1` the inhibition was inactive: 7.5%. `N#CC1(Nc2ccccc2)CCN(Cc2ccccc2)CC1` was tested, and the inhibition was inactive: 10%. With `O=C(OC1CN2CCC1CC2)C1c2ccccc2Oc2ccccc21` (centres undefined) the inhibition was inactive: -11.9%. For `CCOC(=O)N1CCC(Nc2ccc(OC)cc2)CC1`, the inhibition was inactive: -3.4%. With `CCOc1ccc(C)cc1CN(CCCl)CCCl` the inhibition was inactive: 12.9%. `O=C(NCC1(N2CCCCC2)CCCCC1)c1ccc(F)cc1` was tested, and the inhibition was inactive: 0.4%. In the case of `COc1ccc(NC2CCN(CCc3ccccc3)CC2)c(OC)c1`, the inhibition is reported as inactive: -54.6%. With `CCOC(=O)N1CCC(Nc2ccc(F)cc2)CC1` the inhibition was inactive: 9.7%. In the case of `CCOC(=O)N1CCC(Nc2cccc(C)c2)CC1`, the inhibition is reported as inactive: 1.8%. For `COc1cc(C(=O)NCC2(N(C)C)CCCCC2)ccc1OC(F)F`, the inhibition was inactive: -0.6%. For `Cc1ccc(OCC(C)C)c(CN(CCCl)CCCl)c1`, the inhibition was inactive: 5.1%. `O=C(NCC1(N2CCCCC2)CCCCC1)c1ccc(OC(F)F)cc1` was tested, and the inhibition was inactive: -0.4%. `CCN1CCC(Nc2ccc(Cl)cc2)CC1` was tested, and the inhibition was inactive: 14.1%. `N#CC1(Nc2ccccc2)CCN(CCc2ccccc2)CC1` was tested, and the inhibition was inactive: -14.7%. In the case of `O=C(NCC1(N2CCCCC2)CCCCC1)c1cccc([N+](=O)[O-])c1`, the inhibition is reported as inactive: -4.9%. For `O=C(NCC1(N2CCCCC2)CCCCC1)c1cccc(C(F)(F)F)c1`, the inhibition was inactive: 6.1%. For `COc1cc(C(=O)NCC2(N3CCCCC3)CCCCC2)ccc1OC(F)F`, the inhibition was inactive: -5.9%. In the case of `O=C(NCC1(N2CCOCC2)CCCCC1)c1cc(=O)[nH]c2ccccc12`, the inhibition is reported as inactive: 3.3%. With `CN1CCN(CCOC(=O)C(O)(c2ccccc2)c2ccccc2)CC1` the inhibition was inactive: 0%. For `COc1ccc(NC2CCN(C(=O)OC(C)(C)C)CC2)cc1`, the inhibition was inactive: -40%. `CC(C)c1ccc(NC2CCN(C(=O)OC(C)(C)C)CC2)cc1` was tested, and the inhibition was inactive: -12.9%. In the case of `COc1ccc(CN(CCCl)CCCl)cc1Cl`, the inhibition is reported as inactive: -9.8%. `CN(C)c1cccc(C(=O)NCC2(N3CCCCC3)CCCCC2)c1` was tested, and the inhibition was inactive: 4.8%. With `COc1cc(OC)c(C(=O)NCC2(N(C)C)CCCCC2)cc1OC` the inhibition was inactive: 4.8%. For `CCCOc1ccc(C(=O)NCC2(N(C)C)CCCCC2)cc1OC`, the inhibition was inactive: 19.6%.
